Test: Body weight change in NCI-N87 tumor recurrence model (Test Example 1)
Assay type: in vivo, nude mice (BALB/cAJcl-nu/nu)
Settings: body weight change on Day 43 versus Day 0 of Step 1; Compound 1 60 mg/kg/day p.o.; trastuzumab emtansine 10 mg/kg/day i.v.
Method: Furthermore, an electronic balance for animals was used to measure the weights. The rate of change in the weight on Day n (BWCn) was calculated from the weight on Day n (BWn) according to the following equation. Rate of change in weight BWCn (%)=(BWn−BW0)/BW0×100
Eighteen nude mice confirmed with tumor recurrence in Step 1 were selected, and 9 animals were assigned to each group by equal distribution (MiSTAT (ver.2.0)) as follows such that the mean TV of each group was uniform (Day 1, i.e., Day 85 as counted from Step 1). Compound 1 was prepared to 6 mg/mL with a 0.1N HCl solution, and the resultant was orally administered once a day on Days 1-42 consecutively. Trastuzumab emtansine (Kadcyla, Roche) was prepared to 1 mg/mL with Otsuka normal saline, and the resultant was administered into the tail vein of each animal once a day on Days 1 and 22. The tumor diameters and weights were measured with time to calculate TV and BWC.

Trastuzumab emtansine
BWC(%) on Day43 Mean: 21.89%

Reference: US12186320B2, “Therapeutic agent containing pyrazolo[3,4-d]pyrimidine compound as active ingredient” (TAIHO PHARMACEUTICAL CO., LTD., priority 2018, dated 2025)
